The values below are quoted from earlier work in patent EP2420255A2, “Polypeptide inhibitors of urokinase type plasminogen activator” (Ecole Polytechnique Federale De Lausanne (EPFL), priority 2010, dated 2012).

In general, Ki refers to a measure of affinity in units of concentration, obtained from inhibition or displacement.

The series concerns the target trypsin. Conditions: literature; cited from earlier work.

Molecules are shown by their SMILES.

For the molecule `N=C(N)c1ccc(CNC(=O)[C@H](CO)NC(=O)[C@@H](CO)NS(=O)(=O)Cc2ccccc2)cc1` [CJ-463, benzylsulfonyl-D-Ser-Ser-4-amidinobenzylamide], the Ki is 22 nM.
